Laboratory results from patent US11963980B2, “Activated CD26-high immune cells and CD26-negative immune cells and uses thereof” (MUSC FOUNDATION FOR RESEARCH DEVELOPMENT, priority 2016, dated 2024).

System: CD4^+CD26^high cells
Conditions: 2.5 nM Alogliptin, N=4

Compound: Cn1c(=O)cc(N2CCC[C@@H](N)C2)n(Cc2ccccc2C#N)c1=O [Alogliptin]
- MIP-1β (chemokine) secretion of CD4+CD26high cells: less
